Drawing on patent publication US9969697B2, “3,4-dihydroquinazoline derivative and combination comprising the same” (UNIVERSITY-INDUSTRY COOPERATION GROUP OF KYUNG HEE …, priority 2014, dated 2018), this text covers S for 1 compound.

This assay has as its system lung cancer cells (A549). Briefly: Cell cycle analysis by PI staining / flow cytometry, with combination index. In kind it is cell-based, human. The note with it: A549, 48 hours, 100 μM. How it is done: To measure the inviability of cancer cells quantitatively, the cell cycle thereof was analyzed through flow cytometry as follows, in accordance with the method given in the document [See Kim, Y. H. et al., Expression of the murine homologue of the cell cycle control protein […] in T lymphocytes.
After adding ribonuclease (2.5 μg/ml) and propidium iodide (50 μg/ml) together with 500 μl of PBS, the cells were left for 30 minutes in the dark at room temperature, followed by analyzing cell cycle within 1 hour using FACScan flow cytometer (Becton Dickinson Co, Heidelberg, Germany).
Combination index (CI) mathematically expresses the cytotoxicity on cancer cells or growth inhibition of cancer cells through relative comparison after treating drugs alone or in a combination. The CI is the quantitative concept introduced by Paul Talalay and Ting-Chao Chou and was calculated using CalcuSyn software. The effect of combination treatment according to the values of CI was defined as follows.
Background: Flow cytometry measures light scatter and fluorescence of single cells or particles in a stream.

SMILES strings stand for the structures.

In the case of `Cc1ccc(NC(=O)c2ccc(CN3CCN(C)CC3)cc2)cc1Nc1nccc(-c2cccnc2)n1` [Imatinib], the S reads like this: (Table 5) 10.7; (Table 6) 10.7.
